## AlphaSeq binding of Ab-14 heavy chain variants to a spike HR2 peptide

Data: MIT Lincoln Laboratory AlphaSeq set, Li et al. 2023, doi:10.1038/s41467-023-39022-2, as distributed in FLAb.

All variants were tested on one target, the spike HR2 peptide PDVDLGDISGINAS (SARS-CoV-2).

Ab-14 is the parent antibody, in scFv form: VH, then a 15-residue (Gly4Ser)3 linker, then VL. The light chain is unchanged in all variants.
VH: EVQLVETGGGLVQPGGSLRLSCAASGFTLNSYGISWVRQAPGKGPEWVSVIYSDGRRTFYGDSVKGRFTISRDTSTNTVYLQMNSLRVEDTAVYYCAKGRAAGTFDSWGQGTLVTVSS
VL: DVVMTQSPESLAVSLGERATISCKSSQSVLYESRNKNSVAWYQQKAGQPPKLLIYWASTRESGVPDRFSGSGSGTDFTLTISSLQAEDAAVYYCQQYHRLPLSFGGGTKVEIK

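Phage display of a naive human antibody library on the peptide gave the parent. This is the validation round: designs drawn from the data on random variants, tested in the same kind of assay. Several design methods are mixed in this list. The assay is AlphaSeq: two haploid yeast populations carry antibody and antigen on their surface. After mating in shaken culture at 30 °C for 16 h, diploids were selected and their barcode pairs sequenced. The ratio of observed to expected reads was calibrated, replicate by replicate, on BCL2-family standards whose Kd was known from biolayer interferometry. Each pool was mated in six replicate cultures.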

Variants are written as CDR1, CDR2 and CDR3 of the heavy chain (limits as in the source). Parent: GFTLNSYGIS, VIYSDGRRTFYGDSVK, GRAAGTFDS.
Variants here have at most six changes.
The read-out is the apparent dissociation constant on a log10 scale (nM): the lower, the stronger.
Averages over replicates are reported, and they cover detected replicates only.
"no signal" marks a missing value. The strain was present, yet no cells mated with the target were sequenced in any replicate, which points to weak or no binding.
The authors' rule: three or more of the six replicates give a measured affinity, fewer mean a poor binder.

With GFTLNSYGIS | VIYSDGRRTFYTDSVK | GKAAGTFDS the result was 1.75 (3 of 12 replicates; controls 1 of 36). Variant GFTLNSYGIS | VIYSDGRRTFYQDSVK | SRAAGTFDS gave 1.43 (1 of 6 replicates; controls 0 of 18). Variant GFTLNSYGIS | VIYSDGRRTFYGDSVC | GRAAGTFMS gave 2.24 (1 of 6 replicates; controls 0 of 18). With GFTLNSYGIS | VIYSDGRRTFYGDSVK | GRAAGTPDS the result was no signal (0 of 6 replicates; controls 0 of 18). Variant GFELNSYGIS | VIYSDGRRTFYLDSVK | GQLAGTFDS gave 1.75 (2 of 6 replicates; controls 0 of 18). For GFTLDSYMIS | VIYSDGRRNFYGDSVK | GRAAGTAFS, the assay gave no signal (0 of 6 replicates; controls 1 of 18). For GFDLNSYGIS | VIYSDGRRTFYVDSVK | GQPAGTFDS, the assay gave 0.67 (6 of 6 replicates; controls 0 of 18). Variant GFSLNSYGIS | VIYSDGQRTFYGDSVK | GRTAGTFDS gave 0.30 (6 of 6 replicates; controls 2 of 18). Variant GFSLNEYGIS | VIYSDGRRTFYGDQVK | GRNAGTFDS gave 0.35 (6 of 6 replicates; controls 0 of 18).

Variant GFTLNSYGIS | VIYSDGKRTFYGDNVK | GRVAGTFDS gave 1.03 (6 of 6 replicates; controls 1 of 18). With GFNLNSYGIS | VIYSDGQRTFYGDSVK | GRAAGTFSS the result was no signal (0 of 6 replicates; controls 0 of 18). For GFSLNSYGIS | VIYSDGRRTFYDDRVK | GRTAGTFDS, the assay gave 0.24 (6 of 6 replicates; controls 0 of 18). Variant GFTLNDYGIS | VIYSDSRRTDYIDSVK | GRAAGTFDS gave 1.13 (1 of 6 replicates; controls 1 of 18). For GFSLNEYGIS | VIYSDGKRTFYGDAVK | GRTAGTFDS, the assay gave -0.38 (6 of 6 replicates; controls 1 of 18). With GKSLNDYGIS | VIYSDGRRTFYGDWVK | GRTAGTFDS the result was no signal (0 of 6 replicates; controls 0 of 18). Variant GFQLNSYGIS | VIYSDGRRTAYGDSVK | GRTAGTFDS gave 0.26 (6 of 6 replicates; controls 0 of 18). With GFDLNSYGIS | VIYSDGRRTFYADGVK | GKAAGTFDV the result was 1.15 (6 of 6 replicates; controls 0 of 18). Variant GFTLNSYGIS | VIYSDGRRTFYGDSVK | GKTAGTFDK gave 2.26 (2 of 6 replicates; controls 0 of 18).

Variant GFRLNSYGIS | VIYSDGRRTFYDDSVK | GKLAGTFDS showed 1.67 (1 of 6 replicates; controls 0 of 18). Variant GFTLNSYGIS | VIYSDGKRTFYGDQVK | GRNAGTFDS showed 2.06 (6 of 6 replicates; controls 0 of 18). For GFPLNSYGIS | VIYSDGRRTFYGDSVK | GRHAGNKDS, the assay gave no signal (0 of 6 replicates; controls 0 of 18). Variant GFTLNEFGIS | VIYSDGRRTFYTDSVK | GRTAGTFDS showed 0.03 (6 of 6 replicates; controls 0 of 18). Variant GNTLNSYGIS | VIYSDGRRTFYIDSVK | GWLAGTFDQ gave 1.49 (4 of 6 replicates; controls 0 of 18). With GFDLNSYGIS | VIYSDGRRTFYADSVK | GRAAGTFDL the result was 0.81 (6 of 6 replicates; controls 0 of 18). Variant GFTLNSYGIS | VIYSDGRRTFYADSVR | GRAAGLFDS gave no signal (0 of 6 replicates; controls 0 of 18). With GFTLNSYGYS | VIYSDGRRTFYGDSVK | GRAAGRFDS the result was no signal (0 of 6 replicates; controls 1 of 18). For GFTLNEYGIS | VIYSDGRRTFYTDSVK | GRTAGTFIS, the assay gave 2.34 (2 of 6 replicates; controls 0 of 18).

With GFTLLKYGIS | VIYSDGRRTFYGDSVK | GRAAGTWDS the result was no signal (0 of 6 replicates; controls 1 of 18). With GFTLNSYGIS | VIYSDGRRCFYDDSVK | GQLAGTFDS the result was 1.22 (4 of 6 replicates; controls 1 of 18). With GFTLESYGIS | VIYSDGRRTFYADSVK | GREAGTFDT the result was 0.21 (6 of 6 replicates; controls 0 of 18). For GFSLNSYGIS | VIYSDGKRTFYGDSVK | GRQAGTFDS, the assay gave 0.65 (6 of 6 replicates; controls 0 of 18). With GFTLESYGIS | VIYSDGRRTFYADRVK | GRAAGTFDT the result was -1.56 (1 of 6 replicates; controls 0 of 18). Variant KFGLNEYGIS | VIYSDGRRTFYTDSVK | GRFAGTFDS showed no signal (0 of 6 replicates; controls 0 of 18). For GFDLNSYGIS | VIYSDGRRTAYGDSVK | GRSAGTFDS, the assay gave -0.06 (6 of 6 replicates; controls 0 of 18). For GFSLNDYGIS | VIYSDGRRTFYTDSVK | GRQAGTFDS, the assay gave -0.21 (6 of 6 replicates; controls 2 of 18). With GFSLNEFGIS | VIYSDGRRTFYGDSVK | GRTAGTFDS the result was -0.01 (6 of 6 replicates; controls 0 of 18).

With GFELNSYGIS | VIYSDGRRTFYTDSVK | GRLAGTFDS the result was 0.94 (5 of 6 replicates; controls 0 of 18). For SFELNSYGIS | VIYADGRRTFYGDSVK | GRTAGTFDS, the assay gave no signal (0 of 6 replicates; controls 1 of 18). For GFTLNSYGIS | VIYSDGRRTFYADSVK | GKVAGTFDT, the assay gave 0.55 (6 of 6 replicates; controls 1 of 18). With GFTLNSYGIS | VIYSDGLRTFYDDSVK | GQLAGTFDS the result was 1.17 (6 of 6 replicates; controls 0 of 18). With GFTLNSYGRS | VIYSDGQRTFYGGSVK | GRAAGTFDS the result was no signal (0 of 6 replicates; controls 0 of 18). With PFSLNEYGIS | VIYSDGRRTFYGDSVK | GRTAGTFDS the result was 0.01 (6 of 6 replicates; controls 0 of 18). Variant GFTLNSYGIS | VIYSDGMRTFYGDSVK | GRVAGTFDQ showed no signal (0 of 6 replicates; controls 0 of 18). Variant GFLLNEYGIS | VIYSDGRRTFYGDSVK | GRTAGTFDS showed 0.34 (6 of 6 replicates; controls 0 of 18).

Picked from the list: the 5 lowest averages where every replicate gave a value.

| CDR-H1 | CDR-H2 | CDR-H3 | mean log10 Kd (nM) | seen in | control signals |
|---|---|---|---|---|---|
| GFSLNEYGIS | VIYSDGKRTFYGDAVK | GRTAGTFDS | -0.38 | 6 of 6 | 1 of 18 |
| GFSLNDYGIS | VIYSDGRRTFYTDSVK | GRQAGTFDS | -0.21 | 6 of 6 | 2 of 18 |
| GFDLNSYGIS | VIYSDGRRTAYGDSVK | GRSAGTFDS | -0.06 | 6 of 6 | 0 of 18 |
| GFSLNEFGIS | VIYSDGRRTFYGDSVK | GRTAGTFDS | -0.01 | 6 of 6 | 0 of 18 |
| PFSLNEYGIS | VIYSDGRRTFYGDSVK | GRTAGTFDS | 0.01 | 6 of 6 | 0 of 18 |

The range of this assay differs from that of the first round, and the authors advise against merging the two.
A sequence that the file lists under several names has all its replicates pooled.
Background: pairings of all heavy chain designs with three empty control strains gave a value in 1% of cases (median 2.08, 5th percentile 0.84). Values in that range, when seen in few replicates, are hard to tell from nonspecific mating. The control count says in how many pairings with the empty strains this scFv gave a signal.
Of ten entries with the parent sequence, four were seen in most replicates (averages 0.34 to 2.37), three in one and three in none, so single entries are noisy.